Target: Orotidine 5'-phosphate decarboxylase (Methanobacterium thermoautotrophicum) (UniProt O26232)
Conditions: Methanothermobacter thermautotrophicus

Protein sequences, listed by entry. Tags and fused reporters are not part of them. Lines headed by an entry give the natural chain unless they say otherwise; changes in a name come on top.
UniProt O26232: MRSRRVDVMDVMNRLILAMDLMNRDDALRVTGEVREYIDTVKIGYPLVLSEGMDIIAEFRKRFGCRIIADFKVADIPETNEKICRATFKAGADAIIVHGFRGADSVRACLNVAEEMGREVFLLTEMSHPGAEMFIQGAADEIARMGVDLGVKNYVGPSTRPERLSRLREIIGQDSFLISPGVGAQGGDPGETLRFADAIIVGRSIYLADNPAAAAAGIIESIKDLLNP

SMILES | Kinact [h⁻¹]
[N-]=[N+]=Nc1cc(=O)[nH]c(=O)n1[C@@H]1O[C@H](CP(=O)(O)O)[C@@H](O)[C@H]1O | 4
[N-]=[N+]=Nc1cn([C@@H]2O[C@H](CP(=O)(O)O)[C@@H](O)[C@H]2O)c(=O)[nH]c1=O | 612

From ChEMBL document CHEMBL1765012, “Novel interactions of fluorinated nucleotide derivatives targeting orotidine 5'-monophosphate decarboxylase” (J Med Chem, 2011)
